Results reported in PubChem BioAssay (NCI).
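Five compound concentrations were applied to cells in 96-well plates for 48 hours; endpoints were derived by simple linear interpolation of the resulting dose-response curve. GI50 marks 50% less growth. The concentration for full growth arrest is given as TGI.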

How the values were obtained:
Assay in all cases: NCI-60 cell line screen, 48 h
[1] = system: MCF7 breast
[2] = system: HCT-15 colon
[3] = system: UO-31 renal
[4] = system: MDA-MB-231 breast
[5] = system: HCC-2998 colon
[6] = system: NCI-H460 lung
[7] = system: SF-539 CNS
[8] = system: CCRF-CEM leukemia
[9] = system: COLO 205 colon
[10] = system: UACC-62 melanoma
[11] = system: HCT-116 colon
[12] = system: NCI/ADR-RES ovarian
[13] = system: DU-145 prostate
[14] = system: SK-MEL-5 melanoma
[15] = system: HS 578T breast
[16] = system: SK-MEL-28 melanoma
[17] = system: NCI-H226 lung
[18] = system: OVCAR-8 ovarian
[19] = system: LOX IMVI melanoma
[20] = system: HOP-62 NSCLC
[21] = system: KM12 colon
[22] = system: NCI-H522 lung
[23] = system: A498 renal
[24] = system: EKVX NSCLC
[25] = system: OVCAR-4 ovarian
[26] = system: IGROV1 ovarian
[27] = system: RXF 393 renal
[28] = system: SNB-75 CNS
[29] = system: NCI-H23 lung
[30] = system: A549 NSCLC
[31] = system: T-47D breast
[32] = system: RPMI-8226 leukemia
[33] = system: MDA-MB-435
[34] = system: SNB-19 CNS
[35] = system: U251 CNS
[36] = system: HOP-92 NSCLC
[37] = system: TK-10 renal
[38] = system: HT29 colon
[39] = system: SW-620 colon
[40] = system: PC-3 prostate
[41] = system: SN12C renal
[42] = system: OVCAR-5 ovarian
[43] = system: SK-MEL-2 melanoma
[44] = system: SF-268 CNS
[45] = system: SK-OV-3 ovarian
[46] = system: ACHN renal
[47] = system: MDA-N
[48] = system: SF-295 CNS
[49] = system: MALME-3M melanoma
[50] = system: SR leukemia
[51] = system: HL-60(TB) leukemia
[52] = system: OVCAR-3 ovarian
[53] = system: 786-0 renal
[54] = system: M14 melanoma

Structure (SMILES): O=[N+]([O-])C1([N+](=O)[O-])CCCc2nonc21
- GI50 [1]: 33.9 µM
- TGI [1]: > 100 µM
- GI50 [2]: 28.8 µM
- TGI [2]: > 100 µM
- GI50 [3]: 21.4 µM
- TGI [3]: > 100 µM
- GI50 [4]: 37.2 µM
- TGI [4]: > 100 µM
- GI50 [5]: 43.1 µM
- TGI [5]: > 100 µM
- GI50 [6]: 36.2 µM
- TGI [6]: > 100 µM
- GI50 [7]: 39.8 µM
- TGI [7]: > 100 µM
- GI50 [8]: 26.6 µM
- TGI [8]: 78.1 µM
- GI50 [9]: 22.6 µM
- TGI [9]: 43.4 µM
- GI50 [10]: 39.1 µM
- TGI [10]: > 100 µM
- GI50 [11]: 30.5 µM
- TGI [11]: > 100 µM
- GI50 [12]: 36.6 µM
- TGI [12]: > 100 µM
- GI50 [13]: > 100 µM
- TGI [13]: > 100 µM
- GI50 [14]: 40.8 µM
- TGI [14]: > 100 µM
- GI50 [15]: 13.8 µM
- TGI [15]: 72 µM
- GI50 [16]: > 100 µM
- TGI [16]: > 100 µM
- GI50 [17]: > 100 µM
- TGI [17]: > 100 µM
- GI50 [18]: 33.4 µM
- TGI [18]: > 100 µM
- GI50 [19]: 17.2 µM
- TGI [19]: 46.1 µM
- GI50 [20]: 43.3 µM
- TGI [20]: > 100 µM
- GI50 [21]: 33 µM
- TGI [21]: > 100 µM
- GI50 [22]: 16.5 µM
- TGI [22]: 31 µM
- GI50 [23]: 27.7 µM
- TGI [23]: > 100 µM
- GI50 [24]: > 100 µM
- TGI [24]: > 100 µM
- GI50 [25]: 38 µM
- TGI [25]: > 100 µM
- GI50 [26]: 17.6 µM
- TGI [26]: 37 µM
- GI50 [27]: 40.7 µM
- TGI [27]: > 100 µM
- GI50 [28]: 59.3 µM
- TGI [28]: > 100 µM
- GI50 [29]: 20.6 µM
- TGI [29]: 43.9 µM
- GI50 [30]: 37 µM
- TGI [30]: > 100 µM
- GI50 [31]: 21 µM
- TGI [31]: 62.2 µM
- GI50 [32]: 26.4 µM
- TGI [32]: > 100 µM
- GI50 [33]: 42 µM
- TGI [33]: > 100 µM
- GI50 [34]: > 100 µM
- TGI [34]: > 100 µM
- GI50 [35]: > 100 µM
- TGI [35]: > 100 µM
- GI50 [36]: 44.1 µM
- TGI [36]: 77.2 µM
- GI50 [37]: > 100 µM
- TGI [37]: > 100 µM
- GI50 [38]: 30.4 µM
- TGI [38]: > 100 µM
- GI50 [39]: 35 µM
- TGI [39]: > 100 µM
- GI50 [40]: 33.9 µM
- TGI [40]: > 100 µM
- GI50 [41]: 37.1 µM
- TGI [41]: > 100 µM
- GI50 [42]: > 100 µM
- TGI [42]: > 100 µM
- GI50 [43]: 47.3 µM
- TGI [43]: > 100 µM
- GI50 [44]: 69.8 µM
- TGI [44]: > 100 µM
- GI50 [45]: > 100 µM
- TGI [45]: > 100 µM
- GI50 [46]: > 100 µM
- TGI [46]: > 100 µM
- GI50 [47]: 4.73 µM
- TGI [47]: 46.5 µM
- GI50 [48]: > 100 µM
- TGI [48]: > 100 µM
- GI50 [49]: 30.6 µM
- TGI [49]: > 100 µM
- GI50 [50]: 26.5 µM
- TGI [50]: 92.8 µM
- TGI [51]: 35.6 µM
- GI50 [52]: 54.5 µM
- TGI [52]: > 100 µM
- GI50 [53]: 45.5 µM
- TGI [53]: > 100 µM
- GI50 [54]: 16.3 µM
- TGI [54]: > 100 µM
